Protein sequences, listed by entry. Tags and fused reporters are not part of them. Residues count along the entry.
UniProt P15207, 651-882 limits assumed: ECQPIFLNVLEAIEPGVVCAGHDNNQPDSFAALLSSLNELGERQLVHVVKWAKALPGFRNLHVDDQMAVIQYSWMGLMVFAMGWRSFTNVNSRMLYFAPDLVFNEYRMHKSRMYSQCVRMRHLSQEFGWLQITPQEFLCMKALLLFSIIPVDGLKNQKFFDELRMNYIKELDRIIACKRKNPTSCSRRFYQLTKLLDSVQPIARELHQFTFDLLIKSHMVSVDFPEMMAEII

What follows are molecules tested against androgen receptor LBD (Panvera) (Rattus norvegicus, UniProt P15207) (assay: Androgen Receptor Filtration Binding Assay (Panvera receptor)). Conditions: read-out: Binding; Panvera receptor data; 0.5 nM [3H] R1881 tracer.
Description: In Vitro Assay—Androgen Receptor Filtration Binding Assay
The assay was run on a 96 well plate with each well filled with total reaction volume 150 μL, of a solution containing 5 pmol androgen receptor LBD (Panvera) or […] of freshly prepared rat cytosol, 0.5 nM [^3H] R1881 tracer (NEN), 1.5 μL (10 μM) test compound or vehicle (diluted in 30% DMSO, final concentration of DMSO 0.75%) and […] of TED buffer. (TED buffer contains 10 mM Tris.HCl pH 7.4, 1 mM sodium molybdate (60 mg/250 mL), 1.5 mM EDTA, 1 mM DTT and 10% (v/v) glycerol.)
On day one, the solution containing receptor, tracer and TED buffer was distributed onto a 96 well plate. Diluted test compound or control vehicle was then added to individual wells and the plate incubated ay 4° C. overnight.
On day two, to each well was then added 20 μL human γ-globulin (ICN 823102), prepared at 25 mg/ml in TE pH 8.0 and 55 μL 40% polyethylene glycol 8000 (J T Baker U222-08), prepared in TE pH 8.0. The plate was incubated at 4° C. for 60 minutes. During incubation, the harvester was rinsed with 10% PEG 8000, prepared in TE pH 8.0 and the GF/C Unifilter-96 prewet with 10% PEG. The binding reaction was filtered, the retentate was washed three times with 10% PEG and dried under vacuum for about four minutes, then dried at 50° C. for 5 min and then bottom sealed. 25 μL of Microscint-20 (Packard) was added to the filter wells and top sealed. The plate wells were then counted on a TopCount (Packard).
Representative compounds of the present invention were tested for binding to the androgen receptor according to the procedure described above with results as listed in Table 3. % Inhibition values less that 0% indicate no binding at the […] level. The negative number(s) are a result of experimental error from the low number of counts detected.
O=c1cc(C(F)(F)F)c2c3c(ccc2[nH]1)S(=O)(=O)CCN3 gave an IC50 of 63 µM. O=c1cc(C(F)(F)F)c2c3c(ccc2[nH]1)OCCN3 was tested, and the IC50 was 12 µM. With O=c1cc(C(F)(F)F)c2c3c(ccc2[nH]1)SCCN3 the IC50 was 7.2 µM. Nc1ccc2c3c1C(O)(C(F)(F)F)CC(=O)N3CCS2 (centres unmarked) was tested, and the IC50 was 83 µM. Nc1ccc2c3c1c(C(F)(F)F)cc(=O)n3CCS2 was tested, and the IC50 was 24 µM.
